{"source": "paper doi:10.1101/488049", "about": "(bioRxiv, 2018)", "molecular_target": "the molecule itself", "test": "SEC + other: glycerol gradient sedimentation; KIF1C-GFP alone; Superdex 200 in 35 mM sodium phosphate pH 7.5, 1.5 mM MgCl2 at 150 and 500 mM NaCl; 10-40% glycerol gradients at 4°C; apparent mass from Stokes radius and sedimentation coefficient", "data": [{"protein": "KIF1C-GFP (recombinant full-length human KIF1C, 6His-KIF1C-GFP) (natural protein, UniProt O43896 1-1103, looked up, KIF1C (kinesin-3), human, full length; cDNA from the RNAi-protected plasmid pKIF1C^RIP2GFP; No tag cleavage is described; source: SF9 insect cells (baculovirus), purified (SP Sepharose, Ni-NTA); not shown: GFP, C-terminal, kept) MAGASVKVAVRVRPFNARETSQDAKCVVSMQGNTTSIINPKQSKDAPKSFTFDYSYWSHTSTEDPQFASQQQVYRDIGEEMLLHAFEGYNVCIFAYGQTGAGKSYTMMGRQEPGQQGIVPQLCEDLFSRVSENQSAQLSYSVEVSYMEIYCERVRDLLNPKSRGSLRVREHPILGPYVQDLSKLAVTSYADIADLMDCGNKARTVAATNMNETSSRSHAVFTIVFTQRCHDQLTGLDSEKVSKISLVDLAGSERADSSGARGMRLKEGANINKSLTTLGKVISALADMQSKKRKSDFIPYRDSVLTWLLKENLGGNSRTAMIAALSPADINYEETLSTLRYADRTKQIRCNAIINEDPNARLIRELQEEVARLRELLMAQGLSASALEGLKTEEGSVRGALPAVSSPPAPVSPSSPTTHNGELEPSFSPNTESQIGPEEAMERLQETEKIIAELNETWEEKLRKTEALRMEREALLAEMGVAVREDGGTVGVFSPKKTPHLVNLNEDPLMSECLLYHIKDGVTRVGQVDMDIKLTGQFIREQHCLFRSIPQPDGEVVVTLEPCEGAETYVNGKLVTEPLVLKSGNRIVMGKNHVFRFNHPEQARLERERGVPPPPGPPSEPVDWNFAQKELLEQQGIDIKLEMEKRLQDLENQYRKEKEEADLLLEQQRLYADSDSGDDSDKRSCEESWRLISSLREQLPPTTVQTIVKRCGLPSSGKRRAPRRVYQIPQRRRLQGKDPRWATMADLKMQAVKEICYEVALADFRHGRAEIEALAALKMRELCRTYGKPDGPGDAWRAVARDVWDTVGEEEGGGAGSGGGSEEGARGAEVEDLRAHIDKLTGILQEVKLQNSSKDRELQALRDRMLRMERVIPLAQDHEDENEEGGEVPWAPPEGSEAAEEAAPSDRMPSARPPSPPLSSWERVSRLMEEDPAFRRGRLRWLKQEQLRLQGLQGSGGRGGGLRRPPARFVPPHDCKLRFPFKSNPQHRESWPGMGSGEAPTPLQPPEEVTPHPATPARRPPSPRRSHHPRRNSLDGGGRSRGAGSAQPEPQHFQPKKHNSYPQPPQPYPAQRPPGPRYPPYTTPPRMRRQRSAPDLKESGAAV", "values": [{"measurement": "stoichiometry N", "value": 2}]}]}
